# In patent publication US8653063B2, “N-substituted saturated heterocyclic sulfone compounds with CB2 receptor agonistic activity” (dated 2014):
# Protein sequences, listed by entry. Tags and fused reporters are not part of them. Lines headed by an entry give the natural chain unless they say otherwise; changes in a name come on top.
# UniProt Q12809: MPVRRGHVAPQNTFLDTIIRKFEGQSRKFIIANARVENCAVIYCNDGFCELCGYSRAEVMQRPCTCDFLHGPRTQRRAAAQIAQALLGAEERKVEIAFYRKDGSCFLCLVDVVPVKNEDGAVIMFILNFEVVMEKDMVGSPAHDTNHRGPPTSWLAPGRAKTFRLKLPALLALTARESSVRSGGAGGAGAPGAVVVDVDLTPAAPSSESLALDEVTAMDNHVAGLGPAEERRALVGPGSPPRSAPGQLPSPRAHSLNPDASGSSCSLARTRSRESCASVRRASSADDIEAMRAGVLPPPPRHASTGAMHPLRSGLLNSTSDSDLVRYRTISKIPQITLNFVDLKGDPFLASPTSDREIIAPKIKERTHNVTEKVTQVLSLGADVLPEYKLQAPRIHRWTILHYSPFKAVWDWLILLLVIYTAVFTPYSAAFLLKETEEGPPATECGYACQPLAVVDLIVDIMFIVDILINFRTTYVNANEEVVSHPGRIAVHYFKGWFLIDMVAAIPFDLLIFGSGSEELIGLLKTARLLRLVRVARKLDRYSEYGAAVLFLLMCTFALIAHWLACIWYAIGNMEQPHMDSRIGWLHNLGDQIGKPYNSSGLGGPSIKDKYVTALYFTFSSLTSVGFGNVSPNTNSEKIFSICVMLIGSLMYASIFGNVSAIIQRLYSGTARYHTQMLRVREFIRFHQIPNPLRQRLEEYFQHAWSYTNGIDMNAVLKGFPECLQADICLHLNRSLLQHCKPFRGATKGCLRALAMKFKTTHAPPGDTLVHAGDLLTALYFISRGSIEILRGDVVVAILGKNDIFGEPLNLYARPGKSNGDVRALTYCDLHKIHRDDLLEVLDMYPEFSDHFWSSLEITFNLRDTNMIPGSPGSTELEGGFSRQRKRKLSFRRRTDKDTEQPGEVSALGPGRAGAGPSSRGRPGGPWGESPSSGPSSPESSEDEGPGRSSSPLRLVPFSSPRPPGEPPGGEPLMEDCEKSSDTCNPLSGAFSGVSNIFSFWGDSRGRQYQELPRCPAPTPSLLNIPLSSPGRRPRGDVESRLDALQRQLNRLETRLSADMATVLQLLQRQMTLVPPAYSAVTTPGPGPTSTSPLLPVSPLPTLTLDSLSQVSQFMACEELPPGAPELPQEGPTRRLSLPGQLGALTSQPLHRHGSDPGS
# Molecular target: Human HERG (Homo sapiens, UniProt Q12809)
# Experiment: Human dofetilide binding assay
# Conditions: read-out: IC50 value of human dofetilide binding; membranes of human HERG transfected HEK293S cells, Cy3B tagged dofetilide derivative, fluorescence polarization
smiles,measurement,value
CC(C)(C)Cc1nc2cc(S(=O)(=O)CC3CCN(c4ccncc4)CC3)ccc2n1CC1CC1,IC50,600 nM
